This assay has as its target Metabotropic glutamate receptor 5 (Rattus norvegicus) (UniProt P31424). Nature of the assay: Displacement of [3H]-MPEP from human mGluR5.

For orientation: Ki means the dissociation constant of the complex between target and ligand, obtained from inhibition or displacement. A low value points to a stronger hold on the target.

`N#Cc1cccc(C(=O)Nc2cc(-c3ccccc3)nn2-c2ccccc2)c1` displayed a Ki of 250 nM.

(Values after ChEMBL document CHEMBL1287773, “4-aryl piperazine and piperidine amides as novel mGluR5 positive allosteric modulators” (Bioorg Med Chem Lett, 2010).)
